Compounds with a hit are over-represented: about 0.46% of the library has one in this group of screens.
HCMV NEC inh: cytomegalovirus nuclear egress complex inhibition; hit rate 0.15% among 190,000; inhibition, % (concentration not given with the values); HTRF UL50-UL53 interaction, normalized percent inhibition; in the data active = inhibition above about 27%, passing the limit was not always enough
GIV Gai3 FP: inhibitors of GIV peptide binding to Galpha-i3, primary screen, biochemical, fluorescence polarization, FITC-GIV GBA peptide, rat Galphai3 | 90 min; hits give low values; scaled: aluminum fluoride 0%, vehicle 100% | percent of control (FP), % (concentration not given with the values) | 210,000 compounds, 0.42% hits | AID 1224905, 2016;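 active = replicate mean at 85% of control or lower, very high polarization wells dropped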;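 also: wells of about 15 µL received 100 nL stock; the first replicate is given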
Active calls of the source: *; . = no result given.

SMILES	HCMV NEC inh	GIV Gai3 FP
CCN1CC=C2C(C1)C(c1ccc(Cl)s1)C(C#N)=C(N)C2(C#N)C#N (centres undefined)	-29	-52*
CCCN(CCC)S(=O)(=O)C1CCS(=O)(=O)C1 (centres undefined)	15	108
CCCC(CC(=O)O)CC(=O)O	-26	104
C=CCNC(=O)C1CCCN(C(=O)c2cccc(NS(=O)(=O)c3ccc(C(C)C)cc3)c2)C1 (centres undefined)	.	-65*
CCCc1ccc(S(=O)(=O)Nc2cccc(C(=O)N3CCCC(C(=O)NC4CCCC4)C3)c2)cc1 (centres undefined)	.	102
CCOC(=O)N1CCN(S(=O)(=O)c2ccc(C(=O)Nc3nc4ccc(OCC)cc4s3)cc2)CC1	12	105
CC(=O)OC12CC3C(C1C(C)=NN2C(C)=O)C3(C)C (centres undefined)	.	109
c1ccc(N=c2[n-][n+](-c3ccccc3)cn2-c2ccccc2)cc1	55*	.
O=C1CN(c2ccccc2)C(=Nc2ccccc2)S1	7	97
O=C(Nc1ccc(-n2cnnn2)cc1)C1c2ccccc2Oc2ccccc21	-15	.
CCOC(=O)c1nnc2c(-c3ccccc3)c(C)nn2c1C	-95	104
COc1cccc(/C(O)=C/c2nc3ccc(C(=O)N4CCN(c5ccccn5)CC4)cc3[nH]c2=O)c1	-44	55*
COc1cccc(/C(O)=C/c2nc3ccc(C(=O)N4CCN(C5CCCCC5)CC4)cc3[nH]c2=O)c1	-74	110
CCCCN1/C(=C/C=C/c2n(CCCC)c3cc(Cl)c(Cl)cc3[n+]2C)N(C)c2cc(Cl)c(Cl)cc21	.	37*
C=CCn1c(/C=C/C=C2N(CC)c3cc(Cl)c(Cl)cc3N2CC)[n+](CCCS(=O)(=O)[O-])c2cc(Cl)c(Cl)cc21	.	169
CCCCCN1/C(=C\C=C\c2n(CC)c3cc(Cl)c(Cl)cc3[n+]2CCCCC)N(CC)c2cc(Cl)c(Cl)cc21	.	-62*
CC(=O)OCCN1C(=C/C=C/c2n(CCOC(C)=O)c3cc(Cl)c(Cl)cc3[n+]2CCOC(C)=O)N(CCOC(C)=O)c2cc(Cl)c(Cl)cc21	.	282
O=C1CC(c2ccc(-c3ccccc3)cc2)c2ccc3ccccc3c2N1 (centres undefined)	.	108
Cc1sc2c(c1C)CN(Cc1ccccc1)CN2C(=O)c1ccco1	-51	.
Cc1ccc2nc(COc3ccc(NC(=O)Nc4ccc(Cl)cc4)cc3)cc(=O)n2c1	.	85*
CCOc1ccc(NC(=O)Nc2cccc(OCc3cc(=O)n4cc(Cl)ccc4n3)c2)cc1	.	107
CCCC1C(C#N)=C(N)SC(N)=C1C#N	-11	.
CC1C(C#N)=C(N)SC(N)=C1C#N	30	-20*
COC(=O)c1c(-c2ccc(Cl)cc2)noc1NC1CC1	.	103
CN1CCCc2cc(/C=C3\CC/C(=C/c4ccc5c(c4)N(C)CCC5)C3=O)ccc21	.	-75*

Reprinted from the part before: five entries, followed by the next part.
SMILES	HCMV NEC inh	GIV Gai3 FP
CCOc1ccc(NC(=O)Nc2cccc(OCc3cc(=O)n4cc(Cl)ccc4n3)c2)cc1	.	107
CCCC1C(C#N)=C(N)SC(N)=C1C#N	-11	.
CC1C(C#N)=C(N)SC(N)=C1C#N	30	-20*
COC(=O)c1c(-c2ccc(Cl)cc2)noc1NC1CC1	.	103
CN1CCCc2cc(/C=C3\CC/C(=C/c4ccc5c(c4)N(C)CCC5)C3=O)ccc21	.	-75*
CN1CCCc2cc(/C=C3\CCC(C4CCCC4)C3=O)ccc21 (centres undefined)	.	157
CCOC(=O)CS(=O)(=O)c1cc2c(cc1NC(=O)C(C)(C)C)n(C)c(=O)c(=O)n2C	.	98
O=C(Nc1ccccc1)Nc1cccc(-c2noc(C3CCCC3)n2)c1	-32	104
O=c1cc(C(F)(F)F)c2cc(Cl)c(O)cc2o1	-44	-94*
COc1ccc(-c2cc(=O)oc3cc(O)c(Cl)cc23)cc1	-75	101
CCOC(=O)N1CCC(NC(=O)C2CCCN(c3ncnc4c3sc3cccc(F)c34)C2)CC1 (centres undefined)	.	103
CCOC(=O)N1CCC(NC(=O)C2CCN(c3ncnc4c3sc3cccc(F)c34)CC2)CC1	53*	101
Cc1cc(N2CCCC2)nc(Nc2ccc(NC(=O)Nc3cccc(Cl)c3)cc2)n1	.	108
COc1cc2cc3c4c(cc(OC)c(OC)c4c2cc1OC)CCN3C	67*	.
COc1cc2ccc3c(CCN(C)C)cc(OC)c(OC)c3c2cc1OC	.	106
COC(=O)CN(C#N)c1nc(NCc2ccccc2)nc(OC)n1	54*	110
COC(=O)CN(C#N)c1nc(C)cc(C)n1	1	98
CCN(CCCNC(=O)c1nn(C)c2c1CSc1ccccc1-2)c1ccccc1	4	110
CCOc1ccc(C2c3[nH]c4ccccc4c3CCN2C(=O)c2ccccc2)cc1 (centres undefined)	.	113
O=C(O)c1cccc(N2C(=O)c3ccc4c5c(ccc(c35)C2=O)C(=O)N(c2cccc(C(=O)O)c2)C4=O)c1	-43	105
O=C(O)c1cc(NC(=O)c2cccc(N3C(=O)c4cccc5c([N+](=O)[O-])ccc(c45)C3=O)c2)cc(C(=O)O)c1	-20	85*
Cc1nc(N2CCc3ccccc32)nc2c1C(=O)CC(C)C2 (centres undefined)	-32	98
O=c1c2ccccc2nc2c(-c3nc(-c4ccccc4)no3)cccn12	-27	118
O=c1c2ccccc2nc2c(-c3nc(-c4ccc5c(c4)OCO5)no3)cccn12	-18	58*

Source: PubChem (ICCB-Longwood Screening Facility, Harvard Medical School)
